Experimental data from ChEMBL document CHEMBL1135045, “alpha(1)-Adrenoceptor antagonists. Rational design, synthesis and biological evaluation of new trazodone-like compounds” (Bioorg Med Chem Lett, 2002).

Tested on: Adrenergic receptor alpha-2, Rattus norvegicus
Experiment: Ratio of binding affinity towards alpha-2 adrenergic receptor by displacement of [H]rauwolscine to that of displacement of [H]prazosin

Row | SMILES | Ratio
1 | COc1ccccc1N1CCN(CCCn2nc(-n3ccnc3)ccc2=O)CC1 | 6
2 | O=c1ccc(-n2ccnc2)nn1CCCN1CCN(c2ccccc2Cl)CC1 | 9
